We go through one molecule from PubChem BioAssay AID493195 (Broad Institute, 2011).

The list shows a part of the results, in another mix than the full data. Activity calls are given as the source filed them.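 The calls were made as follows: active = fitted dose curve reaching 40% activation within the tested dose range; inconclusive = no clear call, values can overlap the other calls; inactive = the rest, or activity opposite the expected rise.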

A short description of this experiment: HRE-luciferase reporter activators in U2OS cells, dose response, cell-based, luminescence, U2OS HRE-luc, dry powder, set 6 (AID 493195). The note with it: HIF activation, at 38 µM (top of the series). Summed up:
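Test system: human U2OS osteosarcoma cells stably carrying 3×HRE-luciferase reporter. Input: 6,000 cells per well. Times: 24 h compound exposure at 37 °C. Detection: Steady-Glo luciferase luminescence.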

As for `O=c1[nH]c2ccccc2n1C1CCN(Cc2ccc(O)c3ncccc23)CC1`, the activation was inactive: 1.24%.
